These are literature values, as cited in article PMC10818749, “Toxicity Studies of Cardiac-Targeting Peptide Reveal a Robust Safety Profile” (Pharmaceutics, 2024).

For the series, the system named is Chinese hamster ovarian cell line. Particulars: cited from earlier work.
The mark [1] stands for this setting: cell lysates, liquid chromatography–mass spectrometry, ref [53].

Take transportan: the “recovery of cells from the effects” value (5 µM, not at higher treatment concentrations, ref [52]) is given as “could recover”. For the same substance, under setting [1], the “changes to cell metabolism (rank)” value was “most significant changes”; the metabolic effects result is “affected cellular redox potential, depleted energy, and the pools of purines/pyrimidines”.
